From patent US8765779B2, “Tricyclic derivatives and their pharmaceutical use and compositions” (Cephalon, Inc., priority 2009, dated 2014)

The chains behind the UniProt entries cited, without tags or fusion partners.
UniProt P50406, whole entry: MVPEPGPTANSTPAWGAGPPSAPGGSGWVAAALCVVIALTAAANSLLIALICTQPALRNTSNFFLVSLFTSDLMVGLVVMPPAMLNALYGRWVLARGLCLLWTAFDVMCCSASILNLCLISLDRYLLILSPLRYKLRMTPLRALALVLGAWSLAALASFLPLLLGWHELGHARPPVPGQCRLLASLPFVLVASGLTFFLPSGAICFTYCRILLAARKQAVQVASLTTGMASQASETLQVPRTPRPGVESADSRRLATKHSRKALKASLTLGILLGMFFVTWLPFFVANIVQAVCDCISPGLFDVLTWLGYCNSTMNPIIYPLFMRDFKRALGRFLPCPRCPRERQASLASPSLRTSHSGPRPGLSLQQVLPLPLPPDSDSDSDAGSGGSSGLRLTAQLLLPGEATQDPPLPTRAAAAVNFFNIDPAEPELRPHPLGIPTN

Biological target: human 5-HT6 receptor (Homo sapiens, UniProt P50406)
Assay: Human 5-HT6 Receptor Binding Assay ([3H]LSD displacement, scintillation beads)
Details: read-out: h5-HT6 (Ki); membranes of CHO-K1 cells with recombinant human 5-HT6, 4 nM [3H]LSD; Table 1, class symbols; tested form: HCl

SMILES	Ki
O=S(=O)(c1cccc(C(F)(F)F)c1)c1ccc2c3c([nH]c2c1)C1(CCCOC1)NCC3 (single isomer, unassigned)	< 500 nM
O=S(=O)(c1ccccc1)c1ccc2c3c([nH]c2c1)C1(CCCOC1)NCC3 (single isomer, unassigned)	< 500 nM
